{
  "source": "PubChem BioAssay AID588492",
  "about": "(Sanford-Burnham Center for Chemical Genomics, 2011)",
  "note": "The list shows a part of the results, in another mix than the full data. Calls of active or inactive are those of the source.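 Rule for the calls: active = compounds giving at least 50% protection of heart cells from peroxide-induced death in the single-dose screen, raw or plate-pattern-corrected value; inactive = the rest.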",
  "data": [
    {"assay": "H9c2 cardiomyocyte survival under peroxide injury – uHTS, H9c2 cells, ATPLite luminescence, primary screen (AID 588492);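 note: 0% = DMSO wells with peroxide and 100% = DMSO wells without peroxide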", "details": "H9c2 cardiomyocytes, 2 h, at 20 µM, hits give high values", "values": [
      {"smiles": "CC1=NCCc2c1[nH]c1ccccc21.O=[N+]([O-])c1cc([N+](=O)[O-])c(O)c([N+](=O)[O-])c1", "protection from H2O2 cell death": "inactive: 8.6%"},
      {"smiles": "O=[N+]([O-])c1cc([N+](=O)[O-])c(Nc2cccnc2)c([N+](=O)[O-])c1", "protection from H2O2 cell death": "inactive: -21.2%"},
      {"smiles": "COc1cc(C(=O)NCC2(N3CCOCC3)CCCCC2)ccc1OCC(C)C", "protection from H2O2 cell death": "inactive: -3.2%"},
      {"smiles": "Cc1cccc(C)c1OP(C)(N)=O", "note": "(configuration not stated)", "protection from H2O2 cell death": "inactive: -10.7%"},
      {"smiles": "CC(C)(C)c1ccc(OP(C)(=O)Nc2ccc(SC(F)(F)F)cc2)cc1", "note": "(configuration not stated)", "protection from H2O2 cell death": "inactive: -10.9%"},
      {"smiles": "O=[N+]([O-])c1ccc2c(c1)C=Nc1ccccc1O2", "protection from H2O2 cell death": "inactive: 8.9%"},
      {"smiles": "CCOC(=O)c1ccc(NP(C)(=O)Oc2ccccc2)cc1", "note": "(configuration not stated)", "protection from H2O2 cell death": "inactive: 3.3%"},
      {"smiles": "Cc1ccc(NP(C)(=O)Oc2ccccc2)c(C)c1", "note": "(configuration not stated)", "protection from H2O2 cell death": "inactive: 3.4%"},
      {"smiles": "COc1ccccc1OP(C)(=O)Nc1ccc(C)cc1", "note": "(configuration not stated)", "protection from H2O2 cell death": "inactive: 8.2%"},
      {"smiles": "COc1ccc(OP(C)(=O)Nc2cccc(F)c2)cc1", "note": "(configuration not stated)", "protection from H2O2 cell death": "inactive: 1.3%"},
      {"smiles": "COc1ccccc1OP(C)(=O)Nc1cc(Cl)ccc1C", "note": "(configuration not stated)", "protection from H2O2 cell death": "inactive: -3.7%"},
      {"smiles": "Cc1cc(C)cc(OP(C)(N)=O)c1", "note": "(configuration not stated)", "protection from H2O2 cell death": "inactive: 1.2%"},
      {"smiles": "CCN(CC)CCCOC(=O)C(O)(c1ccccc1)c1ccccc1", "protection from H2O2 cell death": "inactive: 5.9%"},
      {"smiles": "CP(=O)(Oc1ccccc1)OC(c1ccccc1)C(F)(F)F", "note": "(configuration not stated)", "protection from H2O2 cell death": "inactive: -1.6%"},
      {"smiles": "Cc1cccc(C)c1OP(C)(=O)Nc1ccc(SC(F)(F)F)cc1", "note": "(configuration not stated)", "protection from H2O2 cell death": "inactive: -1.1%"},
      {"smiles": "Cc1ccc(Nc2c([N+](=O)[O-])cc([N+](=O)[O-])cc2[N+](=O)[O-])cc1", "protection from H2O2 cell death": "inactive: -19.4%"},
      {"smiles": "CP(=O)(Nc1ccc(SC(F)(F)F)cc1)Oc1ccc(Cl)cc1", "note": "(configuration not stated)", "protection from H2O2 cell death": "inactive: -12.5%"},
      {"smiles": "Cc1cc(C)cc(OP(C)(=O)Nc2ccc(SC(F)(F)F)cc2)c1", "note": "(configuration not stated)", "protection from H2O2 cell death": "inactive: -9.7%"},
      {"smiles": "CCc1ccc(OP(C)(=O)N2CCN(c3ccc([N+](=O)[O-])cc3)CC2)cc1", "note": "(configuration not stated)", "protection from H2O2 cell death": "inactive: -7.6%"},
      {"smiles": "CP(=O)(NC(=O)Nc1ccccc1)Oc1ccccc1", "note": "(configuration not stated)", "protection from H2O2 cell death": "inactive: -3.7%"},
      {"smiles": "CCOP(C)(=S)SCC(=O)NC(C)C(=O)O", "note": "(configuration not stated)", "protection from H2O2 cell death": "inactive: 9.1%"},
      {"smiles": "CCOC(=O)c1ccc(NP(C)(=O)Oc2ccc(OC)cc2)cc1", "note": "(configuration not stated)", "protection from H2O2 cell death": "inactive: -2.1%"},
      {"smiles": "O=[N+]([O-])c1cc([N+](=O)[O-])c(O)c([N+](=O)[O-])c1.c1ccc(Oc2ccncc2)cc1", "protection from H2O2 cell death": "inactive: 0.1%"},
      {"smiles": "CP(=O)(Nc1ccccn1)Oc1ccc(Cl)cc1", "note": "(configuration not stated)", "protection from H2O2 cell death": "inactive: 4.2%"},
      {"smiles": "CCCCOc1ccc(C(=O)NCC2(N3CCCCC3)CCCCC2)cc1OC", "protection from H2O2 cell death": "inactive: -1.2%"},
      {"smiles": "CP(=S)(Nn1cnnc1)Oc1ccccc1", "note": "(configuration not stated)", "protection from H2O2 cell death": "inactive: -8.9%"},
      {"smiles": "COc1ccccc1OP(C)(=O)Nc1ccccc1", "note": "(configuration not stated)", "protection from H2O2 cell death": "inactive: -0.8%"}
    ]}
  ]
}
